The target of test [1] is T1, AT1R (Homo sapiens, UniProt P30556). In words: Biased antagonism of sartans for AT1R-stimulated βarr vs. G-protein-mediated signaling (FIG. 6). Particulars: both IC50 in nM; <1 biased for βarr antagonism, >1 biased towards G-protein antagonism.
In test [2] the target is T1, AT1R. Description: Inhibition of SII-induced activation of βarr2 by human AT1R in vitro (FIG. 1A). The conditions noted are these: % normalized signal.

The structures appear in SMILES notation.

As for `CCCCc1nc(Cl)c(CO)n1Cc1ccc(-c2ccccc2-c2nn[nH]n2)cc1` [LOS, Losartan], on AT1R [1], the “ratio of IC50 for AT1R-βarr antagonism to IC50 for G-protein antagonism” value (“ratio of IC50 for AT1R-βarr antagonism” for short) was found to be 2.45. Moreover, the “relative potency for inhibition of SII-induced activation of βarr2 by human AT1R” value on AT1R [2] is given as “the least potent βarr inhibitors”.

For `CCCCC(=O)N(Cc1ccc(-c2ccccc2-c2nnn[nH]2)cc1)[C@H](C(=O)O)C(C)C` [VAL, Valsartan], the “ratio of IC50 for AT1R-βarr antagonism” value at AT1R [1] is given as 0.23. The “relative potency for inhibition of SII-induced activation of βarr2 by human AT1R” value was “the most potent inhibitors” on AT1R [2] and “the most potent” on AT1R [2] (listed as valsartan).

Take `CCCc1nc2c(C)cc(-c3nc4ccccc4n3C)cc2n1Cc1ccc(-c2ccccc2C(=O)O)cc1` [TEL, Telmisartan]: the “ratio of IC50 for AT1R-βarr antagonism” value on AT1R [1] is listed as 0.95.

These data come from patent publication US10172907B2, “Compositions comprising β-arrestin 1 and methods of use thereof for therapeutic modulation of aldosterone levels in heart disease” (NOVA SOUTHEASTERN UNIVERSITY, priority 2010, dated 2019).
